Cyclic peptide permeability, from CycPeptMPDB

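Conditions beyond the assay type are not listed; see the original paper. Other peptides of the study may be missing here. Peptides that the database sets to -10, its floor, are left out.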

PAMPA is the parallel artificial membrane permeability assay, which has no cells and reads passive diffusion.
Permeability is given as log10 of P in cm/s; higher (less negative) is more permeable.

* CC(C)C[C@@H]1NC(=O)[C@H](C)N(C)C(=O)[C@@H]2CCCN2C(=O)[C@H](Cc2ccccc2)NC(=O)CN(Cc2ccccc2)C(=O)[C@@H]2CCCN2C(=O)CN(Cc2ccccc2)C1=O: PAMPA -6.13 (log10 cm/s)
* CC(C)C[C@@H]1NC(=O)[C@@H]2CCCN2C(=O)CN(Cc2ccccc2)C(=O)[C@H](CC(C)C)NC(=O)[C@H](C)N(C)C(=O)[C@@H]2CCCN2C(=O)[C@H](Cc2ccccc2)NC1=O: PAMPA -6.28 (log10 cm/s)
* CC(C)C[C@@H]1NC(=O)[C@H]2CCCN2C(=O)CN(Cc2ccccc2)C(=O)[C@H](CC(C)C)NC(=O)C[C@H](Cc2ccccc2)NC(=O)[C@H]2CCCN2C(=O)[C@H](Cc2ccccc2)NC1=O: PAMPA -6.27 (log10 cm/s)
* CCCN1CC(=O)N[C@H](CC(C)C)C(=O)N[C@@H](Cc2ccccc2)CC(=O)N2CCC[C@@H]2C(=O)N[C@H](CC(C)C)C(=O)N[C@@H](Cc2ccccc2)C(=O)N2CCC[C@@H]2C1=O: PAMPA -5.76 (log10 cm/s)
* CC(C)C[C@@H]1NC(=O)[C@H]2CCCN2C(=O)C[C@H](Cc2ccccc2)NC(=O)[C@@H](CC(C)C)NC(=O)[C@H](C)N(C)C(=O)[C@H](Cc2ccccc2)NC1=O: PAMPA -5.95 (log10 cm/s)
* CC(C)C[C@H]1NC(=O)[C@H](C)N(C)C(=O)[C@@H]2CCCN2C(=O)[C@H](Cc2ccccc2)NC(=O)[C@H](CC(C)C)N(C)C(=O)[C@@H]2CCCN2C(=O)C[C@H](Cc2ccccc2)NC1=O: PAMPA -5.58 (log10 cm/s)
* CC(C)C[C@@H]1NC(=O)CN(Cc2ccccc2)C(=O)[C@@H](C)N(C)C(=O)[C@H]2CCCN2C(=O)[C@H](Cc2ccccc2)NC(=O)[C@@H](CC(C)C)N(C)C(=O)[C@@H]2CCCN2C1=O: PAMPA -5.17 (log10 cm/s)
* CC(C)C[C@@H]1C(=O)N(Cc2ccccc2)CC(=O)N2CCC[C@@H]2C(=O)N(Cc2ccccc2)CC(=O)N[C@@H](Cc2ccccc2)C(=O)N(C)[C@H](C)C(=O)N1C: PAMPA -5.31 (log10 cm/s)
* CC(C)C[C@@H]1C(=O)N2CCC[C@H]2C(=O)N(C)[C@H](CC(C)C)C(=O)N[C@@H](Cc2ccccc2)C(=O)N2CCC[C@@H]2C(=O)N(C)[C@H](C)C(=O)N[C@H](CC(C)C)C(=O)N1C: PAMPA -5.05 (log10 cm/s)
* CC(C)C[C@@H]1NC(=O)[C@@H]2CCCN2C(=O)CN(Cc2ccccc2)C(=O)[C@H](CC(C)C)N(C)C(=O)[C@@H](C)N(C)C(=O)[C@H]2CCCN2C(=O)[C@H](Cc2ccccc2)NC1=O: PAMPA -6.04 (log10 cm/s)
* CC(C)C[C@@H]1NC(=O)[C@H](C)NC(=O)[C@H]2CCCN2C(=O)[C@H](Cc2ccccc2)NC(=O)[C@H](CC(C)C)N(C)C(=O)[C@H]2CCCN2C(=O)CN(Cc2ccccc2)C1=O: PAMPA -6.12 (log10 cm/s)
* CCCN1CC(=O)N(C)[C@@H](CC(C)C)C(=O)N(C)[C@H](CC(C)C)C(=O)N2CCC[C@@H]2C(=O)N[C@H](CC(C)C)C(=O)N[C@@H](Cc2ccccc2)C1=O: PAMPA -5.05 (log10 cm/s)
* CC(C)C[C@H]1NC(=O)C[C@H](Cc2ccccc2)NC(=O)[C@@H]2CCCN2C(=O)[C@H](Cc2ccccc2)NC(=O)[C@@H](CC(C)C)NC(=O)[C@@H]2CCCN2C(=O)C[C@H](Cc2ccccc2)NC1=O: PAMPA -5.75 (log10 cm/s)
* CC(C)C[C@@H]1NC(=O)[C@@H](CC(C)C)NC(=O)[C@H](C)NC(=O)[C@H](Cc2ccccc2)NC(=O)[C@H](CC(C)C)N(C)C(=O)[C@@H]2CCCN2C1=O: PAMPA -5.88 (log10 cm/s)
* CC(C)C[C@@H]1NC(=O)[C@@H]2CCCN2C(=O)[C@H](CC(C)C)NC(=O)[C@@H](CC(C)C)NC(=O)[C@@H](C)NC(=O)[C@H](Cc2ccccc2)NC1=O: PAMPA -7.26 (log10 cm/s)
* CC(C)C[C@@H]1NC(=O)[C@H]2CCCN2C(=O)[C@@H](CC(C)C)NC(=O)[C@@H](CC(C)C)NC(=O)[C@@H](C)N(C)C(=O)[C@H](Cc2ccccc2)NC1=O: PAMPA -6.55 (log10 cm/s)
* CCCN1CC(=O)N(C)[C@@H](CC(C)C)C(=O)N(C)[C@H](CC(C)C)C(=O)N2CCC[C@@H]2C(=O)N(Cc2ccccc2)CC(=O)N[C@@H](Cc2ccccc2)C(=O)N2CCC[C@H]2C1=O: PAMPA -5.40 (log10 cm/s)
* CCCN1CC(=O)N[C@H](CC(C)C)C(=O)N[C@H](CC(C)C)C(=O)N2CCC[C@H]2C(=O)N(C)[C@H](CC(C)C)C(=O)N[C@@H](Cc2ccccc2)C(=O)N2CCC[C@@H]2C1=O: PAMPA -5.97 (log10 cm/s)
* CC(C)C[C@@H]1NC(=O)[C@H](C)NC(=O)[C@H]2CCCN2C(=O)[C@H](Cc2ccccc2)NC(=O)[C@@H](CC(C)C)NC(=O)[C@H]2CCCN2C(=O)[C@H](CC(C)C)NC1=O: PAMPA -5.92 (log10 cm/s)
* CC(C)C[C@@H]1NC(=O)[C@H]2CCCN2C(=O)[C@H](CC(C)C)NC(=O)[C@H](CC(C)C)NC(=O)[C@@H](C)NC(=O)[C@H](Cc2ccccc2)NC1=O: PAMPA -6.61 (log10 cm/s)

Extract of 2 entries:

* CC(C)C[C@@H]1NC(=O)[C@H](C)NC(=O)[C@H]2CCCN2C(=O)[C@H](Cc2ccccc2)NC(=O)[C@@H](CC(C)C)NC(=O)[C@H]2CCCN2C(=O)[C@H](CC(C)C)NC1=O: PAMPA -5.92 (log10 cm/s)
* CC(C)C[C@H]1NC(=O)[C@H](C)N(C)C(=O)[C@@H]2CCCN2C(=O)[C@H](Cc2ccccc2)NC(=O)[C@H](CC(C)C)N(C)C(=O)[C@@H]2CCCN2C(=O)C[C@H](Cc2ccccc2)NC1=O: PAMPA -5.58 (log10 cm/s)

Source: CycPeptMPDB (Li et al. 2023), which took these values from Townsend et al. 2020, doi:10.26434/chemrxiv.13335941.v1.